This is an account of results in ChEMBL document CHEMBL3784975, “Derivatization of agelastatin A leading to bioactive analogs and a trifunctional probe” (Bioorg Med Chem Lett, 2016).

One data set relates to Plasma. As to the kind of experiment: Metabolic stability in human plasma assessed as drug recovery. It is filed as ADME, cell-free.
Data set [1] can be described thus: Plasma protein binding in human by liquid chromatography-mass spectrometric analysis. The format is ADME, cell-free.

Molecules are shown by their SMILES.

For `CN1C(=O)N[C@H]2[C@@H]3NC(=O)c4ccc(Br)n4[C@@H]3C[C@]21O` [AGELASTATIN A], in the data set with Plasma, the Drug recovery was determined as 99.2%. Further, the PPB in data set [1] is on record as 23.9%.
